# PubChem BioAssay AID463075 (University of Pittsburgh Molecular Library Screening Center, 2010)
# This is a selection; strong and weak results do not stand in their true shares. Some salts and complexes are drawn in separate pieces, as the source files them; their charges need not balance. Active and inactive are the calls of the source.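 Rule for the calls: active = activation, meaning protection from cell death, of at least 50% relative to plate controls; inactive = activation below 50%.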
# Experiment: inhibitors of TNF-alpha triggered necroptosis, primary screen, cell-based, Jurkat FADD-/-, single concentration (AID 463075);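 note: necroptosis triggered by 40 ng/mL TNF-alpha added together with compound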
# Details: Jurkat FADD-/- TNF necroptosis rescue, ATP luminescence, 24 h; at 10 µM; active compounds read high; 0 = TNF only, 100 = no-TNF cells
row,Compound,activation (protection from cell death)
1,COc1ccc(OP(C)(=O)Nc2ccccc2Br)cc1 (stereo unspecified),inactive: 2.81%
2,COc1ccccc1OP(C)(=O)Nc1ccc(C)c(C)c1 (stereo unspecified),inactive: 0.287%
3,Cc1cc(C)cc(OP(C)(=O)Nc2cccc(C(F)(F)F)c2)c1 (stereo unspecified),inactive: -0.383%
4,CP(=O)(Nc1ccc(Cl)cc1Cl)Oc1ccccc1 (stereo unspecified),inactive: 0.865%
5,CP(=O)(OCCOc1ccccc1)OCCOc1ccccc1,inactive: -0.606%
6,Cc1nc2ccc3ccccc3c2o1.O=[N+]([O-])c1cc([N+](=O)[O-])c(O)c([N+](=O)[O-])c1,inactive: -7.34%
7,CN(C)CCOC(=O)C(O)(c1ccccc1)C1CCCC1 (stereo unspecified),inactive: 0.0781%
8,COc1ccc(OP(C)(=O)Nc2ccccn2)cc1 (stereo unspecified),inactive: 1.2%
9,COc1ccccc1OP(C)(=O)Nc1ccc(Br)cc1 (stereo unspecified),inactive: 1.07%
10,CCc1ccc(OP(C)(=O)O)cc1,inactive: -0.839%
11,COc1ccccc1OP(C)(=O)Nc1ccc(C)cc1C (stereo unspecified),inactive: -4.07%
12,CP(=O)(Nc1ccccn1)Oc1ccccc1 (stereo unspecified),inactive: -0.561%
13,Cc1c(NP(C)(=O)Oc2ccc(C(C)C)cc2)c(=O)n(-c2ccccc2)n1C (stereo unspecified),inactive: -1.18%
14,O=[N+]([O-])c1cc([N+](=O)[O-])c(Nc2ccccn2)c([N+](=O)[O-])c1,inactive: -12.5%
15,CCc1ccc(OP(C)(=O)Nc2cccnc2)cc1 (stereo unspecified),inactive: 0.41%
16,CP(=O)(Oc1ccccc1)N1CCOC1=O (stereo unspecified),inactive: -4.48%
17,O=C(OCCCN1CCCC1)C(O)(c1ccccc1)C1CCCCC1 (stereo unspecified),inactive: 2.25%
18,COc1ccccc1OP(C)(=O)Nc1c(C)n(C)n(-c2ccccc2)c1=O (stereo unspecified),inactive: 0.222%
19,COc1ccc(OP(C)(=O)Nc2ccc(Br)cc2)cc1 (stereo unspecified),inactive: 13.9%
20,CCN(CC)CC(O)COC(=O)C(O)(c1ccccc1)C1CCCCC1 (stereo unspecified),inactive: 1.35%
21,CN(C)C(=O)c1c([N+](=O)[O-])cc([N+](=O)[O-])cc1[N+](=O)[O-],inactive: -8.76%
22,CP(=O)(Nc1ccc(Cl)cc1)Oc1ccc(F)cc1 (stereo unspecified),inactive: 3.47%

row,Compound,activation (protection from cell death)
1,COc1ccccc1OP(C)(=O)Nc1ccccc1Br (stereo unspecified),inactive: 0.524%
2,CC(C)(C)c1ccc(OP(C)(=O)O)cc1,inactive: -0.276%
3,CP(=O)(OC12CC3CC(CC(C3)C1)C2)OC12CC3CC(CC(C3)C1)C2,inactive: -0.763%
4,CCOC(=O)c1ccc(NP(C)(=O)Oc2ccc(Cl)cc2)cc1 (stereo unspecified),inactive: 5.7%
5,COc1ccc(NP(C)(=O)Oc2ccccc2OC)cc1 (stereo unspecified),inactive: 0.125%
6,CN(C)CCOC(=O)C(O)(c1ccccc1)C1CCCCC1 (stereo unspecified),inactive: 0.274%
7,COc1ccc(OP(C)(=O)Nc2cccc(Br)c2)cc1 (stereo unspecified),inactive: 3.3%
8,O=[N+]([O-])c1cc([N+](=O)[O-])c(NCC2CCS(=O)(=O)C2)c([N+](=O)[O-])c1 (stereo unspecified),inactive: -2.5%
9,Cc1cc(-c2cccc3ccccc23)c(C)cn1.O=[N+]([O-])c1cc([N+](=O)[O-])c(O)c([N+](=O)[O-])c1,inactive: -2.03%
10,O=[N+]([O-])c1ccc(OP2(=O)COCCO2)cc1 (stereo unspecified),inactive: 2.58%
11,CCOP(C)(=S)SCC(=O)NC(C)(CC)C(=O)O (stereo unspecified),inactive: -2.68%
12,CP(=O)(Nc1ccc(SC(F)(F)F)cc1)Oc1ccc(F)cc1 (stereo unspecified),inactive: 3.56%
13,Cc1ccccc1NP(C)(=O)Nc1ccccc1C,inactive: 1.91%
14,CP(=O)(Nc1ccc2c(c1)OCCO2)Oc1ccccc1 (stereo unspecified),inactive: -0.107%
15,CC(C)c1ccc(OP(C)(=O)Nc2ccc(SC(F)(F)F)cc2)cc1 (stereo unspecified),inactive: 3.11%
16,CP(=O)(Nc1ccccc1F)Oc1ccccc1 (stereo unspecified),inactive: -1.48%
17,COc1ccc2c(c1O)-c1c(O)c(OC)cc3c1[C@H](C2)[N+](C)(C)CC3.O=[N+]([O-])c1cc([N+](=O)[O-])c([O-])c([N+](=O)[O-])c1[O-],inactive: -0.0534%
18,O=C(OCCN1CCN(CCOCc2ccccc2)CC1)C(O)(c1ccccc1)c1ccccc1,inactive: -1.46%
19,O=C(OC1CN2CCC1CC2)c1ccc([N+](=O)[O-])cc1 (stereo unspecified),inactive: 3.39%
20,COc1ccc(OP(C)(=O)Nc2ccc(SC(F)(F)F)cc2)cc1 (stereo unspecified),inactive: 3.75%
21,CCOC(=O)c1ccc(NP(C)(=O)Oc2ccc(F)cc2)cc1 (stereo unspecified),inactive: 2.21%
22,CCCCCOc1ccc(NP(C)(=O)Oc2ccc(Cl)cc2Cl)cc1 (stereo unspecified),inactive: 0.244%

row,Compound,activation (protection from cell death)
1,CP(=O)(Nc1ccccc1)Oc1ccc(F)cc1 (stereo unspecified),inactive: 0.282%
2,CCN(CC)CCCOC(=O)C(O)(c1ccccc1)C1CCCCC1 (stereo unspecified),inactive: 0.595%
3,O=C(O)c1cccc(Nc2c([N+](=O)[O-])cc([N+](=O)[O-])cc2[N+](=O)[O-])c1,inactive: 1.05%
4,CC1=NCCc2c1[nH]c1ccccc21.O=[N+]([O-])c1cc([N+](=O)[O-])c(O)c([N+](=O)[O-])c1,inactive: 2.38%
5,Cc1cc(C)cc(OP(C)(=O)Nc2ccc(C)cc2C)c1 (stereo unspecified),inactive: 0.0554%
6,CCOC(=O)c1ccc(NP(C)(=O)Oc2cc(C)cc(C)c2)cc1 (stereo unspecified),inactive: 1.57%
7,COc1ccccc1OP(C)(=O)Nc1cccc(Br)c1 (stereo unspecified),inactive: -1.39%
8,COc1cc(C(=O)NCC2(N3CCOCC3)CCCCC2)cc(Cl)c1OC(C)C,inactive: 0.0646%
9,Cc1cc(C)cc(OP(C)(=O)Nc2ccccn2)c1 (stereo unspecified),inactive: -0.00952%
10,CP(=O)(Nc1cccc(Br)c1)Oc1ccccc1 (stereo unspecified),inactive: 0.0925%
11,Cc1ccc(C)c(NP(C)(=O)Oc2ccccc2)c1 (stereo unspecified),inactive: -0.637%
12,O=[N+]([O-])c1cc([N+](=O)[O-])c(-n2nnc3ccccc32)c([N+](=O)[O-])c1,inactive: -0.637%
13,Cc1nc2ccc3ccccc3c2s1.O=[N+]([O-])c1cc([N+](=O)[O-])c(O)c([N+](=O)[O-])c1,inactive: -5.08%
14,CCOC(=O)C(CC)C1=NC(C)(C)Cc2ccccc21.O=[N+]([O-])c1cc([N+](=O)[O-])c(O)c([N+](=O)[O-])c1 (stereo unspecified),inactive: -2.88%
15,CN(C)C1(CNC(=O)c2ccc(S(C)(=O)=O)cc2)CCCCC1,inactive: 0.683%
16,O=[N+]([O-])c1cc([N+](=O)[O-])c(Nc2nnnn2CCO)c([N+](=O)[O-])c1,inactive: -2.43%
17,CCCOc1ccc(NP(C)(=O)Oc2ccc(Cl)cc2)cc1 (stereo unspecified),inactive: 2.25%
18,CP(=O)(Nc1ccc(SC(F)(F)F)cc1)Oc1ccccc1 (stereo unspecified),inactive: 6.96%
19,COc1ccccc1OP(C)(=O)Nc1c(C)cccc1C (stereo unspecified),inactive: -1.03%
20,CN1CCCCC1COC(=O)C1(O)c2ccccc2CCc2ccccc21 (stereo unspecified),inactive: 3.16%
21,COc1ccccc1OP(C)(=O)Nc1ccccc1 (stereo unspecified),inactive: -0.635%
22,CP(=O)(Nc1ccccc1Br)Oc1ccccc1 (stereo unspecified),inactive: -0.061%

row,Compound,activation (protection from cell death)
1,CP(=S)(Nn1cnnc1)Oc1ccccc1 (stereo unspecified),inactive: 0.0659%
2,Cc1cc(C)cc(OP(C)(=O)Nc2ccc(SC(F)(F)F)cc2)c1 (stereo unspecified),inactive: 2.73%
3,CP(=O)(NC(=O)Nc1ccccc1)Oc1ccccc1 (stereo unspecified),inactive: -0.045%
4,CCc1ccc(OP(C)(=O)N2CCN(c3ccc([N+](=O)[O-])cc3)CC2)cc1 (stereo unspecified),inactive: -1.54%
5,CP(=O)(Oc1ccccc1)OC(c1ccccc1)C(F)(F)F (stereo unspecified),inactive: 20.3%
6,Cc1cccc(C)c1OP(C)(=O)Nc1ccc(SC(F)(F)F)cc1 (stereo unspecified),inactive: 1.28%
7,CP(=O)(Nc1ccc(SC(F)(F)F)cc1)Oc1ccc(Cl)cc1 (stereo unspecified),inactive: 5.23%
8,CP(=O)(Nc1ccccn1)Oc1ccc(Cl)cc1 (stereo unspecified),inactive: 0.76%
9,CCOP(C)(=S)SCC(=O)NC(C)C(=O)O (stereo unspecified),inactive: 0.957%
10,CCOC(=O)c1ccc(NP(C)(=O)Oc2ccc(OC)cc2)cc1 (stereo unspecified),inactive: 6.06%
11,CCN(CC)CCCOC(=O)C(O)(c1ccccc1)c1ccccc1,inactive: 0.9%
12,Cc1cccc(C)c1OP(C)(N)=O (stereo unspecified),inactive: -1.87%
13,CC(C)(C)c1ccc(OP(C)(=O)Nc2ccc(SC(F)(F)F)cc2)cc1 (stereo unspecified),inactive: 3.58%
14,O=[N+]([O-])c1ccc2c(c1)C=Nc1ccccc1O2,inactive: -12.9%
15,COc1ccc(OP(C)(=O)Nc2cccc(F)c2)cc1 (stereo unspecified),inactive: 5.31%
16,COc1ccccc1OP(C)(=O)Nc1cc(Cl)ccc1C (stereo unspecified),inactive: 0.961%
17,Cc1cc(C)cc(OP(C)(N)=O)c1 (stereo unspecified),inactive: -0.441%
18,CCOC(=O)c1ccc(NP(C)(=O)Oc2ccccc2)cc1 (stereo unspecified),inactive: 1.85%
19,Cc1ccc(NP(C)(=O)Oc2ccccc2)c(C)c1 (stereo unspecified),inactive: 1.95%
20,COc1ccccc1OP(C)(=O)Nc1ccc(C)cc1 (stereo unspecified),inactive: 0.318%
